# Measurements reported in US10188747B2, “Methods and compositions for the treatment of cancer” (THE GENERAL HOSPITAL CORPORATION, priority 2014, dated 2019).
# Tested on: skin, oral, and lung SCC cells
# Experiment: Spheroid formation assays of SCC cells in Matrigel
# Format: cell-based, human
compound,measurement,setting,value
Oc1ccc(C2Oc3ccc(O)cc3C3CCCC32)cc1 (centres unmarked),time at which effects started to show in the spheroid formation,,5 days
same,spheroid formation,1 uM concentration,completely suppressed
same,efficacy in spheroid formation assays,"all cell lines tested (skin, oral, and lung SCC cells)",striking efficacy
same,lung SCC cell line growth,"spheroid assays, FIG. 18B",suppression
same,skin and oral SCC cell line growth,"spheroid assays, FIGS. 18A and 18C",suppression
